What all share (experiment): NCI-60 one-dose screen, 48 h (100 = growth as untreated, 0 = no growth, -100 = all killed)
What all share (details): 10 µM

Test [1] deals with NCI/ADR-RES ovarian.
The subject of test [2] is T-47D breast.
The test system of test [3] is MDA-MB-435 melanoma.
The test system of test [4] is SW-620 colon.
The subject of test [5] is MCF7 breast.
Test [6] deals with HCT-116 colon.
Test [7] concerns HCC-2998 colon.
The subject of test [8] is KM12 colon.
Test [9] relates to BT-549 breast.

The values that follow come from PubChem BioAssay (NCI).

SMILES strings stand for the structures. Values joined by “and” are separate entries in the source; they are usually repeats but may differ in a detail not shown here. Equal entries are not always repeated. This is a selection; strong and weak results do not stand in their true shares.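 Note: values are percent growth. 100 is the growth of untreated cells, values between 100 and 0 indicate rising inhibition; between -100 and 0 indicates cell death.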 Some structures show a salt or complex split into parts, the way the source records it. Active and inactive are the calls of the source. How the source made its calls: active means growth percent below 10; inactive means the rest.

Turning to `O=C(Cl)c1c([N+](=O)[O-])cc([N+](=O)[O-])cc1[N+](=O)[O-]`, the growth in test [1] was inactive: 76%; in test [2] it was active: -0.253%; in test [3], inactive: 79.1%; in test [4], inactive: 26.3%; in test [5], active: -56%; in [6], inactive: 63.9%. In addition, the growth is inactive: 31.2% in test [7] and inactive: 60.4% in test [8].
On to `O=[N+]([O-])c1cc([N+](=O)[O-])c(Nc2nnnn2CCO)c([N+](=O)[O-])c1`, for which the growth in [1] was inactive: 102%; in [2] it was inactive: 106%; in test [3] it was inactive: 103%; in test [4], inactive: 117%; in test [5], inactive: 94.9%; in test [6], inactive: 105%. Moreover, the growth in [7] is inactive: 109%; in test [8], inactive: 114%.
With `NC(=NCCN/C(N)=N/[N+](=O)[O-])N[N+](=O)[O-]`, the growth in test [1] was inactive: 97.1%; in test [9], inactive: 82.3%; in [3], inactive: 110%; in [4] it was inactive: 104%; in test [5], inactive: 86.2%; in test [6], inactive: 89%. Also, the growth in test [7] is inactive: 95.8%; in test [8], inactive: 109%.
For the molecule `O=[N+]([O-])c1cc([N+](=O)[O-])c(O)c([N+](=O)[O-])c1.c1ccc([I+]c2ccccc2)cc1`, the growth in test [1] is inactive: 91.3%; in test [2] it was inactive: 60%; in test [3] it was inactive: 77.2%; in test [4], inactive: 34.3%; in [5], inactive: 46.3%; in [6], inactive: 18.5%. Further, the values for the growth in test [7] and in [8] were inactive: 54.4% and inactive: 52.5%, respectively.
Regarding `CN(C)Nc1c([N+](=O)[O-])cc([N+](=O)[O-])cc1[N+](=O)[O-]`, the growth was inactive: 105% in test [1]; inactive: 93.1% in test [2]; inactive: 92.4% in test [9]; inactive: 107% in test [3]; inactive: 125% in test [4]; inactive: 87.9% in test [5]. Also, the figures for the growth in test [6], in test [7] and in [8] were inactive: 94.5%, inactive: 111% and inactive: 94.8%, respectively.
As for `O=[N+]([O-])c1cc([N+](=O)[O-])c(Oc2ccccc2)c([N+](=O)[O-])c1`, the growth in [1] is inactive: 102%; in test [2] it was inactive: 109%; in test [9], inactive: 104%; in test [3], inactive: 101%; in test [4], inactive: 110%; in [5], inactive: 98.4%. Moreover, the growth in test [6] is inactive: 104%; in test [7], inactive: 109%; in test [8] it was inactive: 110%.
With `CN/C(N)=N/[N+](=O)[O-]`, the growth in test [1] is inactive: 101%; in test [2], inactive: 117%; in test [3], inactive: 115%; in test [4], inactive: 103%; in test [5], inactive: 86%; in test [6], inactive: 100%. For the same molecule, the values for the growth in test [7] and in [8] were inactive: 109% and inactive: 103%, respectively.
For the molecule `O=[N+]([O-])c1cccc([N+](=O)[O-])c1O`, the growth was inactive: 110% in test [1]; inactive: 101% in [2]; inactive: 111% in test [3]; inactive: 95.2% in [4]; inactive: 96% in [5]; inactive: 106% in test [6]. For the same molecule, the growth in test [7] was inactive: 121%; in test [8], inactive: 106%.
For `CCOC(=O)Nc1c([N+](=O)[O-])cc([N+](=O)[O-])cc1[N+](=O)[O-]`, the growth in [1] is inactive: 97.1%; in test [2], inactive: 70.8%; in [9] it was inactive: 104%; in test [3], inactive: 103%; in test [4] it was inactive: 107%; in test [5], inactive: 73.1%. Besides, the growth was inactive: 100% in test [6], inactive: 102% in test [7] and inactive: 109% in test [8].
For `Cc1c([N+](=O)[O-])c(C)c([N+](=O)[O-])c(C)c1[N+](=O)[O-]`, the growth is inactive: 104% in test [1]; inactive: 109% in [2]; inactive: 103% in test [3]; inactive: 105% in [4]; inactive: 104% in [5]; inactive: 108% in test [6]. Further, the results for the growth in test [7] and in test [8] were inactive: 103% and inactive: 116%, respectively.
Turning to `N=C(N)N(N)[N+](=O)[O-]`, the growth in [1] was inactive: 106%; in [2], inactive: 105%; in test [3] it was inactive: 111%; in [4], inactive: 104%; in [5], inactive: 106%; in [6] it was inactive: 106%. Besides, the growth in test [7] is inactive: 106%; in [8], inactive: 101%.
Regarding `n1nc(-c2nn[nH]n2)n[nH]1`, the growth was inactive: 110% in test [1]; inactive: 91% in test [2]; inactive: 106% in test [3]; inactive: 107% in test [4]; inactive: 110% in test [5]; inactive: 104% in test [6]. Also, the growth was inactive: 102% in test [7] and inactive: 109% in test [8].
Regarding `Nc1cccc(Cl)c1.O=[N+]([O-])c1cc([N+](=O)[O-])c(O)c([N+](=O)[O-])c1`, the growth is inactive: 101% in [1]; inactive: 91.8% in test [2]; inactive: 97.5% in test [9]; inactive: 108% in test [3]; inactive: 107% in [4]; inactive: 91.9% in test [5]. The growth was inactive: 98.5% in test [6], inactive: 104% in [7] and inactive: 98.8% in test [8].
On to `CN(C)CCS`, for which the growth in test [1] was inactive: 99.1% and inactive: 109%; in test [2], inactive: 100% and inactive: 96.5%; in test [9] it was inactive: 106% and inactive: 89.8%; in test [3], inactive: 100%; in test [4], inactive: 104%; in test [5] it was inactive: 91.5% and inactive: 101%. Moreover, the growth was inactive: 106% and inactive: 108% in test [6]; inactive: 97.2% and inactive: 107% in [7]; inactive: 112% and inactive: 104% in [8].
Regarding `O=[N+]([O-])c1cc([N+](=O)[O-])c(C(F)(F)F)c([N+](=O)[O-])c1O`, the growth in test [1] was inactive: 98.7%; in [9], inactive: 94.2%; in [3], inactive: 101%; in test [4], inactive: 99.9%; in test [5] it was inactive: 94.8%; in test [6], inactive: 99.9%. For the same molecule, the growth in [7] was inactive: 105%; in [8], inactive: 97.3%.
As for `CCN(CC)CCOC(=O)C(O)(c1ccccc1)c1cc(C)cc(C)c1C` (centres undefined), the growth in test [1] is inactive: 101%; in test [2], inactive: 98.4%; in test [9] it was inactive: 123%; in test [3], inactive: 107%; in test [4], inactive: 109%; in [5], inactive: 92.9%. Further, the values for the growth in test [6], in [7] and in test [8] were inactive: 104%, inactive: 114% and inactive: 115%, respectively.
